# CycPeptMPDB entries from one study

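Conditions beyond the assay type are not listed; see the original paper. The list need not hold all peptides of the study. Entries at the database's floor value (log10 P of -10) are not listed.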

PAMPA measures passive passage through an artificial lipid membrane. Permeability is given as log10 of P in cm/s; higher (less negative) is more permeable.

SMILES	PAMPA (log10 cm/s)
CC(C)C[C@@H]1NC(=O)[C@@H](CC(C)C)NC(=O)[C@H](C)NC(=O)[C@H](Cc2ccccc2)NC(=O)[C@@H](CC(C)C)NC(=O)[C@H]2CCCN2C1=O	-4.82
CC(C)C[C@H]1NC(=O)[C@@H]2CCCN2C(=O)CN(Cc2ccccc2)C(=O)[C@@H](CC(C)C)NC(=O)[C@@H](C)N(C)C(=O)[C@@H]2CCCN2C(=O)[C@H](Cc2ccccc2)NC1=O	-5.98
CC(C)C[C@@H]1C(=O)N[C@@H](Cc2ccccc2)C(=O)N2CCC[C@H]2C(=O)N[C@H](C)C(=O)N[C@H](CC(C)C)C(=O)N(C)[C@@H](CC(C)C)C(=O)N2CCC[C@H]2C(=O)N1C	-6.09
CCCN1CC(=O)N(C)[C@@H](CC(C)C)C(=O)N[C@H](CC(C)C)C(=O)N2CCC[C@H]2C(=O)N(Cc2ccccc2)CC(=O)N[C@@H](Cc2ccccc2)C(=O)N2CCC[C@@H]2C1=O	-6.36
CC(C)C[C@@H]1C(=O)N[C@@H](Cc2ccccc2)C(=O)N2CCC[C@@H]2C(=O)N[C@H](C)C(=O)N[C@H](CC(C)C)C(=O)N[C@@H](Cc2ccccc2)CC(=O)N2CCC[C@H]2C(=O)N1C	-6.36
CC(C)C[C@@H]1C(=O)N(C)[C@H](CC(C)C)C(=O)N2CCC[C@@H]2C(=O)N[C@H](CC(C)C)C(=O)N[C@@H](Cc2ccccc2)C(=O)N2CCC[C@H]2C(=O)N[C@@H](C)C(=O)N1C	-5.31
CC(C)C[C@H]1NC(=O)[C@@H](C)NC(=O)[C@H]2CCCN2C(=O)[C@H](Cc2ccccc2)NC(=O)CN(Cc2ccccc2)C(=O)[C@@H]2CCCN2C(=O)[C@@H](CC(C)C)NC1=O	-6.30
CC(C)C[C@@H]1C(=O)N[C@@H](Cc2ccccc2)C(=O)N[C@H](C)C(=O)N(C)[C@H](CC(C)C)C(=O)N(C)[C@@H](CC(C)C)C(=O)N2CCC[C@@H]2C(=O)N1C	-5.07
CC(C)C[C@@H]1NC(=O)C[C@H](Cc2ccccc2)NC(=O)[C@H]2CCCN2C(=O)[C@H](Cc2ccccc2)NC(=O)[C@@H](CC(C)C)NC(=O)[C@H]2CCCN2C(=O)[C@@H](CC(C)C)N(C)C1=O	-5.54
CC(C)C[C@@H]1NC(=O)[C@@H](CC(C)C)NC(=O)C[C@H](Cc2ccccc2)NC(=O)[C@@H]2CCCN2C(=O)[C@H](Cc2ccccc2)NC(=O)[C@@H](CC(C)C)N(C)C(=O)[C@H]2CCCN2C1=O	-5.43
CC(C)C[C@@H]1C(=O)N[C@@H](Cc2ccccc2)CC(=O)N2CCC[C@H]2C(=O)N(C)[C@@H](CC(C)C)C(=O)N[C@@H](Cc2ccccc2)C(=O)N2CCC[C@H]2C(=O)N[C@H](C)C(=O)N1C	-5.41
CC(C)C[C@@H]1C(=O)N2CCC[C@H]2C(=O)N(Cc2ccccc2)CC(=O)N[C@@H](Cc2ccccc2)C(=O)N2CCC[C@@H]2C(=O)N(C)[C@@H](C)C(=O)N(C)[C@H](CC(C)C)C(=O)N1C	-5.81
CC(C)C[C@H]1NC(=O)[C@H](C)NC(=O)[C@H]2CCCN2C(=O)[C@H](Cc2ccccc2)NC(=O)CN(Cc2ccccc2)C(=O)[C@@H]2CCCN2C(=O)[C@H](CC(C)C)N(C)C1=O	-6.02
CC(C)C[C@@H]1NC(=O)[C@H]2CCCN2C(=O)CN(Cc2ccccc2)C(=O)[C@H](CC(C)C)N(C)C(=O)[C@@H](C)NC(=O)[C@H]2CCCN2C(=O)[C@H](Cc2ccccc2)NC1=O	-6.77
CCCN1CC(=O)N[C@H](CC(C)C)C(=O)N[C@@H](CC(C)C)C(=O)N2CCC[C@H]2C(=O)N(Cc2ccccc2)CC(=O)N[C@@H](Cc2ccccc2)C1=O	-5.50
CC(C)C[C@@H]1NC(=O)[C@@H]2CCCN2C(=O)CN(Cc2ccccc2)C(=O)[C@H](CC(C)C)N(C)C(=O)C[C@H](Cc2ccccc2)NC(=O)[C@@H]2CCCN2C(=O)[C@H](Cc2ccccc2)NC1=O	-5.73
CC(C)C[C@@H]1NC(=O)[C@H](C)NC(=O)[C@H](Cc2ccccc2)NC(=O)[C@@H](CC(C)C)NC(=O)[C@@H]2CCCN2C(=O)[C@@H](CC(C)C)N(C)C1=O	-6.10
CC(C)C[C@@H]1NC(=O)[C@H](CC(C)C)N(C)C(=O)[C@@H](C)NC(=O)[C@H](Cc2ccccc2)NC(=O)CN(Cc2ccccc2)C(=O)[C@H]2CCCN2C1=O	-5.20
CCCN1CC(=O)N[C@H](CC(C)C)C(=O)N[C@@H](Cc2ccccc2)CC(=O)N2CCC[C@H]2C(=O)N(C)[C@H](CC(C)C)C(=O)N[C@@H](Cc2ccccc2)C(=O)N2CCC[C@@H]2C1=O	-5.90
CCCN1CC(=O)N(Cc2ccccc2)CC(=O)N(C)[C@@H](CC(C)C)C(=O)N2CCC[C@H]2C(=O)N(C)[C@@H](CC(C)C)C(=O)N[C@@H](Cc2ccccc2)C(=O)N2CCC[C@H]2C1=O	-5.21
CC(C)C[C@@H]1NC(=O)[C@H]2CCCN2C(=O)[C@H](CC(C)C)NC(=O)[C@@H](CC(C)C)NC(=O)[C@H](C)N(C)C(=O)[C@H](Cc2ccccc2)NC1=O	-6.01
CC(C)C[C@H]1NC(=O)C[C@H](Cc2ccccc2)NC(=O)[C@H](Cc2ccccc2)NC(=O)[C@H](CC(C)C)N(C)C(=O)[C@@H]2CCCN2C(=O)[C@H](CC(C)C)N(C)C1=O	-5.02
CCCN1CC(=O)N(C)[C@@H](CC(C)C)C(=O)N[C@H](CC(C)C)C(=O)N2CCC[C@H]2C(=O)N(C)[C@H](CC(C)C)C(=O)N[C@@H](Cc2ccccc2)C(=O)N2CCC[C@@H]2C1=O	-5.19

Again, the 3 entries with the lowest PAMPA:

SMILES	PAMPA (log10 cm/s)
CC(C)C[C@@H]1NC(=O)[C@H]2CCCN2C(=O)CN(Cc2ccccc2)C(=O)[C@H](CC(C)C)N(C)C(=O)[C@@H](C)NC(=O)[C@H]2CCCN2C(=O)[C@H](Cc2ccccc2)NC1=O	-6.77
CCCN1CC(=O)N(C)[C@@H](CC(C)C)C(=O)N[C@H](CC(C)C)C(=O)N2CCC[C@H]2C(=O)N(Cc2ccccc2)CC(=O)N[C@@H](Cc2ccccc2)C(=O)N2CCC[C@@H]2C1=O	-6.36
CC(C)C[C@@H]1C(=O)N[C@@H](Cc2ccccc2)C(=O)N2CCC[C@@H]2C(=O)N[C@H](C)C(=O)N[C@H](CC(C)C)C(=O)N[C@@H](Cc2ccccc2)CC(=O)N2CCC[C@H]2C(=O)N1C	-6.36

Values of Townsend et al. 2020, doi:10.26434/chemrxiv.13335941.v1, as listed in CycPeptMPDB.